Measured values published in paper PMC8704707 (Pharmaceuticals, 2021).

Biological target: AChE from electric eel (EeAChE) (Electrophorus electricus, UniProt O42275)
Test: Inhibition of acetylcholinesterase, Ellman's method
Assay type: biochemical
Conditions: ratio of IC50 for AChE/IC50 for BuChE; values above 1 indicate stronger inhibition of BuChE

## [H]/N=C(\NN=Cc1ccc([N+](=O)[O-])o1)N[N+](=O)[O-]
  Selectivity AChE/BuChE: < 0.05
